From paper PMC12836348, “Alanine Mutagenesis Identifies Specific Amino Acids of Nemertide Alpha‑1 Activity and Its Binding to Target Receptors” (Journal of Natural Products, 2025) come the findings set out here.

Amino acid sequences for entries named in this document (tags omitted).
UniProt P08104, whole entry: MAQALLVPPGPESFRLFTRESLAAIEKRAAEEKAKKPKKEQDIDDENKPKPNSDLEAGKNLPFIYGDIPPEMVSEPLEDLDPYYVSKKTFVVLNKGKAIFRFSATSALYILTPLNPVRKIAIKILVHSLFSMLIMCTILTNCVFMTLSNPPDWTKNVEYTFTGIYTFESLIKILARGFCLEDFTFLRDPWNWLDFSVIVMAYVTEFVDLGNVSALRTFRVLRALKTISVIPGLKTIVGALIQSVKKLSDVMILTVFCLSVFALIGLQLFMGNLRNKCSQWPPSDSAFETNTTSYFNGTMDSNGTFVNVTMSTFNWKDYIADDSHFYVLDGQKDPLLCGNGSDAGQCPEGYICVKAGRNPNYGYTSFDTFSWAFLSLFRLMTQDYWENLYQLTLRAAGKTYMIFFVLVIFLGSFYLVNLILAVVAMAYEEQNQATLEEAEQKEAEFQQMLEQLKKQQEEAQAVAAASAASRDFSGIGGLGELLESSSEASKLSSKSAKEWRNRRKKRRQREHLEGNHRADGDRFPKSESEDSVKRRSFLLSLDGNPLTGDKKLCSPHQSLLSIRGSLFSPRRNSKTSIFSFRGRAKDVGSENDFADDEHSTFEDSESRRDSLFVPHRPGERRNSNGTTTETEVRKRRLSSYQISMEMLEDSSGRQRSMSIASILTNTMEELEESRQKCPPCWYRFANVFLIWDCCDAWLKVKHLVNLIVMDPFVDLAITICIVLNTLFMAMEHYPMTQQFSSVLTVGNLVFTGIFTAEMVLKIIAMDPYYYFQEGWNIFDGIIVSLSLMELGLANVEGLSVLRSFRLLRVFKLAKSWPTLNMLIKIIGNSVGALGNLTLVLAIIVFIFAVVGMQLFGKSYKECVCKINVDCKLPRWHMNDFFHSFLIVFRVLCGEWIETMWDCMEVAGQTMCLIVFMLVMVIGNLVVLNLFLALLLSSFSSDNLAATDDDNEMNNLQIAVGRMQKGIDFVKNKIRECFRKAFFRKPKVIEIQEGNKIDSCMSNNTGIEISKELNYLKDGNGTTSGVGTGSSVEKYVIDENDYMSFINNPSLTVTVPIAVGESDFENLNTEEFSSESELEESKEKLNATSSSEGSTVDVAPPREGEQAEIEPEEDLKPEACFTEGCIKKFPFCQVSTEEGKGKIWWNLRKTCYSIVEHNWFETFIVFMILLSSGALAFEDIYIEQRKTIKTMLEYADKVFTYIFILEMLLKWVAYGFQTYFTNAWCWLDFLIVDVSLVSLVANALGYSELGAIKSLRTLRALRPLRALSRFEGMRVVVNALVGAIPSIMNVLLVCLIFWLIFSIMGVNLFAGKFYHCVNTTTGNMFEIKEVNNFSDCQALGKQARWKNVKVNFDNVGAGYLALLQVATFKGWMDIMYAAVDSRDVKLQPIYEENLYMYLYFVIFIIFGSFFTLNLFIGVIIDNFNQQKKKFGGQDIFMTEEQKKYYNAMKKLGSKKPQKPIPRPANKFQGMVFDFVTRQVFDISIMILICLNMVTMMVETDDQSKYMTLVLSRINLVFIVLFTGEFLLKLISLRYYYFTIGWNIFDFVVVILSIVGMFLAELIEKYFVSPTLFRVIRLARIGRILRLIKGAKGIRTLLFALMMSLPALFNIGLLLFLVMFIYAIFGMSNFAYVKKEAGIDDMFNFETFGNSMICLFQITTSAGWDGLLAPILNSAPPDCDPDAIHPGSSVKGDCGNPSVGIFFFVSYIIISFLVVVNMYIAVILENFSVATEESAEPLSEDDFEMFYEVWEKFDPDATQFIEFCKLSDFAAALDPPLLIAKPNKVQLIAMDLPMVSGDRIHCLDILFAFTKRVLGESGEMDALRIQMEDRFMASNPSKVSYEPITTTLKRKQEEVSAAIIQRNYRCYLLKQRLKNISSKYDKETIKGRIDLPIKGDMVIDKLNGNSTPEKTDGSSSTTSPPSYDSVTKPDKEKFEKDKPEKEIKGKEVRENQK

What all share (type): cell-based
In assay [1] the test system is α9α10. In words: Ion channel panel, nAChR α9α10. Further details: key: “+” means tested and produced effect; “–“ means tested but no effect. The conditions noted are these: S12A at 5 μM, oocytes at −70 mV, 5 min incubation, n ≥ 3. From the text: (§1) To assess the concentration–response relationships, data were fitted with the Hill equation: y = 100/[1 + (EC50/[toxin])^ h ], where y is the amplitude of the toxin-induced effect (y = I 30 ms/I peak where I 30 ms is the current value at 30 ms in the presence of toxin and I peak is the peak current amplitude in control conditions), EC50 is the toxin concentration at half-maximal efficacy, [toxin] is the toxin concentration, and h is the Hill coefficient. Potassium and calcium currents were evoked by a 500 ms depolarization to the voltage corresponding to the maximal activation of the channels in control conditions from a holding potential of −90 mV. Elicited currents were sampled at 1 kHz and filtered at 0.5 kHz. […] ASIC1a currents were measured in ND96 solutions at a pH of 7.4 and 4.5, at a holding potential of −70 mV during 400 s, and the data were filtered at 20 Hz. EnaC currents were measured by clamping oocytes at a holding potential of −60 mV and perfusing with low- (1 mM) and high- (96 mM) sodium ND96. Opioid currents were measured by clamping the potential to −70 mV and changing the perfusion solution from ND96 to high-potassium (HK) solution composed of 96 mM KCl, 2 mM NaCl, 1 mM MgCl2, 1.8 mM CaCl2, and 5 mM HEPES, with a final pH of 7.5. […] TRPV1 and TRPA1 currents were continuously monitored in a perfusing ND96 solution, following a protocol at −90 mV for 400 s. […]

In assay [2] the test system is α4β2. Put plainly: Ion channel panel, nAChR α4β2. The arrangement: key: “+” means tested and produced effect; “–“ means tested but no effect. The conditions noted are these: S12A at 5 μM, oocytes at −70 mV, 5 min incubation, n ≥ 3.
Text: as §1

In assay [3] the test system is Kv1.5. In words: Ion channel panel, Kv1.5. Further details: key: “+” means tested and produced effect; “–“ means tested but no effect. The note with it: S12A at 5 μM; Xenopus oocytes, n ≥ 3.
Text: as §1

In assay [4] the test system is Kv1.3. Put plainly: Ion channel panel, Kv1.3. Further details: key: “+” means tested and produced effect; “–“ means tested but no effect. The note with it: S12A at 5 μM; Xenopus oocytes, n ≥ 3.
Text: as §1

Assay [5] deals with μ-Opoid receptor. Put plainly: Ion channel panel, μ-opioid receptor. Further details: key: “+” means tested and produced effect; “–“ means tested but no effect. The conditions noted are these: S12A at 5 μM; −70 mV, HK solution, 0.2 μM morphine, n ≥ 3.
Text: as §1

In assay [6] the target is T1, rNaV1.3 (Rattus norvegicus, UniProt P08104).
T1 construct: expressed in transfected cells; host or cells: Xenopus laevis oocytes (cRNA injection)
Put plainly: Two-electrode voltage clamp, Nav1.3 in Xenopus laevis oocytes. The conditions noted are these: ex vivo, Hill fit, n ≥ 3, highest tested concentration 50 μM. A general note: In two-electrode clamp one electrode senses voltage and the other passes current.

For the compound `CC[C@H](C)[C@@H]1NC(=O)[C@@H](NC(=O)CN)CSSC[C@@H]2NC(=O)[C@@H]3CSSC[C@@H](C(=O)N[C@@H](CC(N)=O)C(=O)N4C[C@H](O)C[C@H]4C(=O)N4C[C@H](O)C[C@H]4C(=O)N[C@@H](CC(N)=O)C(=O)N[C@@H](CCC(N)=O)C(=O)O)NC(=O)[C@H](CCCCN)NC(=O)[C@H](Cc4ccccc4)NC(=O)[C@H](CC(N)=O)NC(=O)[C@H](Cc4c[nH]c5ccccc45)NC(=O)CNC(=O)[C@H](CSSC[C@H](NC(=O)[C@H](Cc4ccccc4)NC(=O)[C@H](CO)NC(=O)CNC(=O)[C@H]([C@@H](C)O)NC(=O)[C@H](C)NC1=O)C(=O)N[C@@H]([C@@H](C)O)C(=O)N[C@@H](CC(C)C)C(=O)N[C@@H](C)C(=O)N[C@@H](CCCCN)C(=O)NCC(=O)N3)NC(=O)[C@H](CC(N)=O)NC(=O)[C@H](CCCCN)NC(=O)[C@H]([C@@H](C)O)NC2=O` [Peptide S12A], the “effect on α9α10” value in assay [1] is given as “–”. The “effect on α4β2” value in assay [2] was “–”. Besides, in assay [3], the “effect on Kv1.5” value is on record as “–”. Moreover, the “effect on Kv1.3” value in assay [4] was “–”. Also, the “effect on μ-Opoid receptor” value in assay [5] is recorded as “–”. Further, the “EC50 Nav1.3” value in assay [6] is “no detectable activity”.
